# AlphaSeq binding of Ab-95 light chain variants to a spike HR2 peptide

Reference: Engelhart et al. 2022, doi:10.1038/s41597-022-01779-4. File: FLAb, binding data.

Target: peptide PDVDLGDISGINAS, taken from heptad repeat 2 (HR2) of SARS-CoV-2 spike.

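Phage display of a naive human antibody library on the peptide gave the parent. Variants in AAYL52 differ from the parent at up to three CDR positions; double and triple changes were sampled at random. In AlphaSeq, yeast of one mating type display the scFv and yeast of the other type display the target. After mating in shaken culture at 30 °C for 16 h, diploids were selected and their barcode pairs sequenced. Read counts were normalised to the haploid input and turned into Kd by a linear fit to BCL2-family pairs of known affinity, for each replicate. There are three technical replicates.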

Ab-95 is the parent antibody, in scFv form: VH, then a (GGGGS)3 linker, then VL. The heavy chain is unchanged in all variants.
VH: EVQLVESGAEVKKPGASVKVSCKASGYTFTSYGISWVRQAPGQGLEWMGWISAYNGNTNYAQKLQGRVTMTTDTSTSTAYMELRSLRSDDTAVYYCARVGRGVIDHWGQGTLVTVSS
VL: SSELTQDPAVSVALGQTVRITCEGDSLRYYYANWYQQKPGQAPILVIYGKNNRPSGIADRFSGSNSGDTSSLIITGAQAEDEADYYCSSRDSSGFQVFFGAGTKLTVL

Changes read parent residue, position, new residue, counted from the first residue of the VL shown.
All variants listed here change S93 of the VL, counted from its first residue.
Values are apparent Kd, the geometric mean of the replicates that gave a signal; lower means stronger binding.
"nd" marks a missing value. The strain was present, yet no cells mated with the target were sequenced in any replicate, which points to weak or no binding.
Background: pairings of library AAYL52 with three empty control strains gave a value in 28% of cases (median 8.2 µM, 5th percentile 800 nM). Values in that range, when seen in few replicates, are hard to tell from nonspecific mating.

Variant R53V/S89N/S93G gave 590 nM (3 of 3 replicates). With Y31K/S93L/F95E the result was nd (0 of 3 replicates). Variant S26F/R90S/S93R gave 9.1 µM (2 of 3 replicates). Variant G24M/S93F/F95S showed 13 µM (3 of 3 replicates). Variant G24M/S55P/S93R gave 8.2 µM (3 of 3 replicates). For E23Y/K50D/S93C, the assay gave nd (0 of 3 replicates). With S89K/R90H/S93D the result was 93 nM (3 of 3 replicates). Variant S55P/S93T/G94N gave 270 nM (3 of 3 replicates). Variant S55M/S93E/V97A showed 710 nM (3 of 3 replicates).

With Y31L/G49D/S93F the result was 4.1 µM (1 of 3 replicates). Variant A32E/S88V/S93I gave 150 µM (1 of 3 replicates). For R53N/S92P/S93G, the assay gave 2.1 µM (1 of 3 replicates). For E23L/R53M/S93W, the assay gave 130 µM (3 of 3 replicates). Variant S89R/S93R showed 1.2 µM (3 of 3 replicates). With Y31K/S93K/Q96F the result was nd (0 of 3 replicates). For R28Q/S88N/S93V, the assay gave 5.3 µM (2 of 3 replicates). With N52G/R53H/S93A the result was 510 nM (3 of 3 replicates). Variant N51I/S93A/G94Y gave nd (0 of 3 replicates).

For S93Y, the assay gave nd (0 of 3 replicates). Variant E23H/L27Q/S93A gave 2.5 µM (3 of 3 replicates). Variant R90E/S93M/F95T gave nd (0 of 3 replicates). For S93N, the assay gave 140 nM (3 of 3 replicates). Variant Y31H/S93F showed 1.1 µM (3 of 3 replicates). Variant N51H/S93I gave 150 µM (2 of 3 replicates). With Y31S/K50C/S93V the result was 1.3 µM (3 of 3 replicates). Variant S93R gave 2.2 µM (2 of 3 replicates). Variant D25E/L27A/S93A gave 1.9 µM (2 of 3 replicates).

For D25L/R53C/S93T, the assay gave 29 µM (1 of 3 replicates). For S93Y/V97G, the assay gave 540 nM (3 of 3 replicates). With N51H/P54A/S93I the result was nd (0 of 3 replicates). Variant Y29D/D91A/S93F showed 85 nM (3 of 3 replicates).

From the list, the first 2 with no signal in any replicate:

With Y31K/S93L/F95E the result was nd (0 of 3 replicates).
With E23Y/K50D/S93C the result was nd (0 of 3 replicates).